Laboratory results as given in patent publication EP4631940A1, “COMPOUND TARGETING PAN-KRAS PROTEIN DEGRADATION AGENT AND USE THEREOF” (Betta Pharmaceuticals Co., Ltd., priority 2022, dated 2024).

Assays:
AGS = test: Cell proliferation experiment (CellTiter-Glo); assay type: cell-based; conditions: read-out: IC50(nM) AGS, KRAS mutation type G12D, 96 h incubation
KRAS G12D = KRAS G12D (Homo sapiens, UniProt P01116, G12D); test: In-Cell Western Blotting degradation experiment in AGS cell line; conditions: KRAS^G12D vs GAPDH

Row | Substance | IC50 (AGS) [nM] | DC50 (KRAS G12D) [nM] | Dmax (%) (KRAS G12D)
1 | (2S,4R)-1-((S)-2-(4-(1-((1-((1-(((7-(8-ethyl-7-fluoro-3-hydroxynaphthalen-1-yl)-8-fluoro-4-((R)-3-hydroxy-3-methylpiperidin-1-yl)pyrido[4,3-d]pyrimidin-2-yl)oxy)methyl)cyclopropyl)methyl) piperidin-4-yl)methyl)piperidin-4-yl)-1H-1,2,3-triazol-1-yl)-3-methylbutanoyl)-4-hydroxy-N-((S )-1-(4-(4-methylthiazol-5-yl)phenyl)ethyl)pyrrolidine-2-carboxamide | 17 |  | 
2 | (2S,4R)-1-((S)-2-(4-((1-((1-(((7-(8-ethyl-7-fluoro-3-hydroxynaphthalen-1-yl)-8-fluoro-4-((R)-3-hydroxy-3-methylpiperidin-1-yl)pyrido[4,3-d]pyrimidin-2-yl)oxy)methyl)cyclopropyl)methyl)pi peridin-4-yl)azetidin-3-yl)-1H-1,2,3-triazol-1-yl)-3-methylbutanoyl)-4-hydroxy-N-((S)-1-(4-(4-methylthiazol-5-yl)phenyl)ethyl)pyrrolidine-2-carboxamide | 33 | 84 | 95

Some compounds may have been tested in ways that are not shown here.
